The term EC50 denotes the concentration giving half of the maximal effect. A low value points to greater potency.

The chains behind the UniProt entries cited, without tags or fusion partners.
UniProt P21453, whole entry, species assumed: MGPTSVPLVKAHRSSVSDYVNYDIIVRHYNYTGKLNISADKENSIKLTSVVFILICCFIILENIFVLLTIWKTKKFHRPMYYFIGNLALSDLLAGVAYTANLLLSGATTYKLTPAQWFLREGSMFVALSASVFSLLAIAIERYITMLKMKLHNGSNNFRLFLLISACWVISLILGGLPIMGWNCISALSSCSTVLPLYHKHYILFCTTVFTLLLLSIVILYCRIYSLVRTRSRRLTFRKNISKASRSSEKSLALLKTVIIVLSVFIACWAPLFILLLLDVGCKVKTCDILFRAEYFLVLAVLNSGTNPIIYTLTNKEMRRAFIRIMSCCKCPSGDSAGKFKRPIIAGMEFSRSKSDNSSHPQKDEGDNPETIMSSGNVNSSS

Drawing on patent publication EP2305660A1, “New thiadiazole derivatives” (Almirall, S.A., priority 2009, dated 2011), this text covers EC50 for 2 substances.

The experiment addresses S1P1 (Homo sapiens, UniProt P21453). Description: 35S-GTPyS binding assay (membranes). It is filed as biochemical. Conditions: compound 0.1nM-10µM, 0.1nM 35S-GTPyS, 10µM S1P as 100% maximum efficacy, 90 min at room temperature. Here is the method: The effect of the compounds was measured using a 35S-GTPyS binding assay. Briefly, membranes were incubated in a buffer containing 20 mM HEPES pH 7.4, 100 mM NaCl, 10 mM MgCl2, 10µM GDP, 50µg/ml saponin and 0.2% fatty acid-free BSA at various concentrations (0.1nM-10µM) and 0.1nM 35S-GTPyS. 10µM S1P was used as 100% maximum efficacy. The assay was incubated for 90 min at room temperature with gentle mixing, and terminated by filtrating the reaction mixture through GF/C filter plates using the Manifold Filtration System. The filters were immediately washed with sodium phosphate pH 7.4 buffer. After drying the filter plates scintillant liquid were added to each well and 35S-GTPyS binding was measured on a Trilux Scintillation Counter.

As to “(1S,2R)-2-{[2-(4-{5-[butyl(2-chlorobenzoyl)amino]-1,3,4-thiadiazol-2-yl}-2,6-dimethylphenoxy)ethyl]amino}cyclopentanecarboxylic acid [Example 68]”, the midpoint of the response, the EC50, lay at 10.1 nM.

On to “N-[2-(4-{5-[butyl(2-chlorobenzoyl)amino]-1,3,4-thiadiazol-2-yl}-2,6-dimethylphenoxy)ethyl]-N-methylglycine [Example 45]”, for which the EC50 amounted to 2.8 nM.
